Assays:
[1] = target: Non-receptor tyrosine-protein kinase TYK2 (Homo sapiens, UniProt P29597); assay: Inhibition of TYK2 (unknown origin) assessed as inhibition constant
[2] = Inhibition of IL-2 induced human T cell proliferation preincubated with compound for 30 mins followed by IL-2 induction and measured after 3 days in the presence of [3H]thymidine by scintillation counter analysis; format: functional, cell-based

Sequences of proteins named here, by UniProt entry; tags and fusion partners are left off. A change or cut given only in a name is not applied to a line headed by its entry.
UniProt P29597: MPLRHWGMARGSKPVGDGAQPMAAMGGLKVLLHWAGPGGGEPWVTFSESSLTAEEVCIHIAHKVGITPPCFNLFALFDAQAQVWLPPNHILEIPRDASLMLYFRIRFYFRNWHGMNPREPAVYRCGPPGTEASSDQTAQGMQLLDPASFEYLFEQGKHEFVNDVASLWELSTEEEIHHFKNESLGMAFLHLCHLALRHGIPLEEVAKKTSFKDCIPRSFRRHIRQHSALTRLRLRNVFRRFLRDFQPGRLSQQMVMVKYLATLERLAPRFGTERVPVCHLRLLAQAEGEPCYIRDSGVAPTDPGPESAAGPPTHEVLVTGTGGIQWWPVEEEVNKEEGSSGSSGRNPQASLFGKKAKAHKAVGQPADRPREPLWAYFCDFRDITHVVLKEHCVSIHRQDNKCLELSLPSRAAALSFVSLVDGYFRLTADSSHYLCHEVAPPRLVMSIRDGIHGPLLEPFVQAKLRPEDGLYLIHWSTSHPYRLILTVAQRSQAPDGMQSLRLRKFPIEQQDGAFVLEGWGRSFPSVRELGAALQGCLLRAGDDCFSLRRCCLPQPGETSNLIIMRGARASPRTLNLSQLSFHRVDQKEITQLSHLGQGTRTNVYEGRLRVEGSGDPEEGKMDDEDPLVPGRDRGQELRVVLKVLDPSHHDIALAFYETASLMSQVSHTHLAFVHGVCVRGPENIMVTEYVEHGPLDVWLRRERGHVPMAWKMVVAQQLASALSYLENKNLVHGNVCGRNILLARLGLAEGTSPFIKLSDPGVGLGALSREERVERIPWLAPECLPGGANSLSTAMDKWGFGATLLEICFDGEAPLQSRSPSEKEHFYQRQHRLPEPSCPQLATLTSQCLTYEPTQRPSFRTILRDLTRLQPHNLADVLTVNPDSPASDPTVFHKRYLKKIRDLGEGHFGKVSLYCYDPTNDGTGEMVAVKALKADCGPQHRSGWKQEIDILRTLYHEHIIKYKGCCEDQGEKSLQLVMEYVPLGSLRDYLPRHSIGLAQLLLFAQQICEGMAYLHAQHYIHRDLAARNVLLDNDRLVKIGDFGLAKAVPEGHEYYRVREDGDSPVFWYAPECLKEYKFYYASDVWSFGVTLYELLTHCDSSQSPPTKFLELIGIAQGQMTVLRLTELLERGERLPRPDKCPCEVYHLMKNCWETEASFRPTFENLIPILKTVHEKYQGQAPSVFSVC

Ki [1] | SMILES | IC50 [2]
11 nM | CC[C@@](C)(Nc1ccnc(-c2c[nH]c3ncccc23)n1)C(=O)NCC(F)(F)F [DECERNOTINIB] | 
 | C[C@H]1CN(C(=O)CC#N)[C@]12CCN(c1ncnc3[nH]ccc13)C2 [DELGOCITINIB] | 8.9 nM

Source: ChEMBL document CHEMBL5244234, “Janus kinases (JAKs): The efficient therapeutic targets for autoimmune diseases and myeloproliferative disorders” (Eur J Med Chem, 2020)
